{
  "source": "patent US20090124672A1",
  "about": "(priority 2007, published 2009)",
  "origin": "cited, not measured here",
  "target": "T1, human mitochondrial aldehyde dehydrogenase (ALDH-2) (Homo sapiens, UniProt P05091)",
  "T1 sequence (P05091 18-517)": "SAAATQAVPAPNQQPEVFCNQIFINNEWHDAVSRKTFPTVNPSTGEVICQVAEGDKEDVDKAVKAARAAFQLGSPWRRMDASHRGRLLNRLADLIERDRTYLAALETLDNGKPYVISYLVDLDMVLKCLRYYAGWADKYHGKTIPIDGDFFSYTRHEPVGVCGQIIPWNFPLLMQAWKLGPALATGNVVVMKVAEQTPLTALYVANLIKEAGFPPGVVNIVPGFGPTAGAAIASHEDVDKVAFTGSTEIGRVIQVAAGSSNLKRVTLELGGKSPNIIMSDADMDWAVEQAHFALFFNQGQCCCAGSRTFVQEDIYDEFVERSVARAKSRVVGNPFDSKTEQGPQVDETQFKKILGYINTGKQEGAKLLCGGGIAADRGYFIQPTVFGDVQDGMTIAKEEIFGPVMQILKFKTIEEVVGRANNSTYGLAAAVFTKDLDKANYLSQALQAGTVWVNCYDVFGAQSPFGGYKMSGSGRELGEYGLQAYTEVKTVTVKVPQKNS",
  "details": "cited from earlier work",
  "data": [
    {"substance": "daidzin", "values": [
      {"measurement": "inhibition of ALDH-2", "result": "potent and selective inhibitors"}
    ]}
  ]
}
